Yeast mating assay B: variants of the scFv Ab-14

Reference: Li et al. 2023, doi:10.1038/s41467-023-39022-2. File: FLAb, binding data.

Binding partner: SARS-CoV-2 spike HR2 peptide, sequence PDVDLGDISGINAS.

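The parent was found by panning a naive human phage display library on the peptide. These sequences belong to a second round, designed from the earlier measurements on random variants of the parent. Several design methods are mixed in this list. The assay is AlphaSeq: two haploid yeast populations carry antibody and antigen on their surface. After mating in shaken culture at 30 °C for 16 h, diploids were selected and their barcode pairs sequenced. A regression on co-assayed BCL2-family reference pairs converts the normalised counts of each replicate to an apparent Kd. The assay was run in six technical replicates.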

Parent: Ab-14, a human scFv built as VH, three GGGGS repeats, VL. Only the CDRs of the heavy chain vary.
VH: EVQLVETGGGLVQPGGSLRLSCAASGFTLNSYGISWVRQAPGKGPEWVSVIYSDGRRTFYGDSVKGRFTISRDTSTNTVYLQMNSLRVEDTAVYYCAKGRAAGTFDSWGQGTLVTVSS
VL: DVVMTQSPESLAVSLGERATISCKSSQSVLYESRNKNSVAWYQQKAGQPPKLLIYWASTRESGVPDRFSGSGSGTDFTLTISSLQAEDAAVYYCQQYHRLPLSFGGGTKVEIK

Variants are written as CDR1, CDR2 and CDR3 of the heavy chain (limits as in the source). Parent: GFTLNSYGIS, VIYSDGRRTFYGDSVK, GRAAGTFDS. Scale: log10 of Kd in nM, estimated from mating counts; low values are strong binders. Replicates are averaged; those with no signal do not enter the mean. "nd" means that the variant was in the library but no mating with the target was seen in any replicate; the authors take this as a sign of poor binding, and no number exists. As a blank, each scFv also met three strains without target: over all heavy chain designs, 1% of these pairings were detected, typically at 2.08 and seldom below 0.84.

CDR-H1 | CDR-H2 | CDR-H3 | mean, log10 nM | detected
GFTLNQYGIS | VIYSDGRRTFYADSVK | GQAAGTFDS | 0.38 | 6 of 6
GFTLESYGIS | VIYSDGRRTFYSDSVK | GRAGGTFDS | 1.48 | 6 of 6
GFDLNEYGIS | VIYADGRRTSYVDSVK | GVNAGTFDV | -0.29 | 6 of 6
GFNLNSYGIS | VIYSDGRRTFYGDSVK | GRAAGTFKS | -0.43 | 5 of 6
GFTLNEYGIS | VIYLDGRRTGYGDSVK | GRAAVTFDE | 2.62 | 1 of 6
GFTLNSYGIS | VIYSDGRRTFYADSVK | DRAAGCFDD | 1.47 | 1 of 6
GFTLNSYGIS | VIYSDGRRTFYTDSVR | GRDIGTFDS | nd | 0 of 6
GFTLNSYGIS | VIYSDGRRTFYDDSVK | GRALVTFDS | nd | 0 of 6
GFTLNSYGIS | VIYADGRRTFYADSVK | GRAAATFDS | 2.48 | 2 of 6
GFDLDEMGIS | VIYADGVRTAYIDQVK | GMKGTFMNV | nd | 0 of 6
GFGLNEYGIS | VIYSDGRRTFYQDSVK | GKAAGTFDS | nd | 0 of 6
RFKLNSYGIS | VIYSDGRRTFYIDSVK | GRIAGTFDS | 0.49 | 1 of 6
GFTLQSYGIS | VIYSDGKRTFYGDSVK | GRAAGTFDS | 1.82 | 3 of 6
GFTLNSYGIS | VIYSDGRRTFYGDSVK | GRAAGCAWT | nd | 0 of 6
GFDIEKYGIS | VIYADGQRVAYDSSVK | GENAGNFHV | nd | 0 of 6
GFTLDSYGIS | VIYSDGRRTFYGDSVK | GREAGTFDY | 0.72 | 5 of 6
GFELNSYGIS | VIYADGRRTFYGDSVK | GKAAGTFDK | -0.02 | 6 of 6
GFTLNSYGIS | VIYSDGRRTFYGDSVK | GRAVGTFDS | 1.77 | 6 of 6
DFTLNEYGIS | VIYSDGRRTFYGDSVK | GRAAVTFDK | nd | 0 of 6
GFDLNEYGIS | VIYSDGRRTFYGDSVK | GRAASVFDS | 1.57 | 3 of 6
GFTLNEYGIS | VIYSDGRRTFYWDSVK | GRAAVTFDT | nd | 0 of 6
GFSLNDYGIS | VIYSDGRRTFYIDSVK | GRLAGTFDS | 0.94 | 6 of 6
GFDLNEYGIS | VIYADGRRTFYIDSVK | GEVAGTFDL | -0.19 | 6 of 6
GFSLNSYGIS | VIYSDGRRTFYQDSVK | GSVAGTFDS | -0.05 | 6 of 6
GFDLNEYGIS | VIYADGMRTAYADNVK | GNTAGTFDI | -0.08 | 6 of 6
GFDLNSYGIS | VIYSDGRRTFYGDSVK | GRTAGRFTS | nd | 0 of 6
GEDLDEYGIS | VIYADGRRVVYQDQVK | GELAGTFDQ | 1.44 | 1 of 6
GFTLNSYGIS | VIYSDGWRTFYDDSVK | GQLAGTFDS | 1.73 | 1 of 6
GFDVDEYGIS | VIYADGKRVAYHDSFK | GQNNKVSIV | nd | 0 of 6
GFDLNEYGIS | VIYADGRRTAYSDSVK | GEVAGTFDA | -0.51 | 6 of 6
GFTLNSYGIS | VIYSDGKRTFYGDKVK | GEAAGTFDS | 0.18 | 1 of 6
GFTLDSYGIS | VIYSDGRRTFYGDSVK | GRAAGTANS | 1.98 | 1 of 6
GFSLNSYGIS | VIYSDGKRTFYVDSVK | GRQAGTFDS | 1.17 | 6 of 6
GFGLNSYGIS | VIYSDGRRTFYIDEVK | GRTAGTFDS | 0.72 | 4 of 6
GFSLNEYGIS | VIYSDGRRTFYGDSVK | GNAAGTFDT | -0.64 | 6 of 6
GFTLDSYGIS | VIYSDGRRTFYADDVK | GRAAGTFDK | 1.21 | 6 of 6
GFNLNSYGIS | VIYSDGRRTFYGDSVK | GKSAGTFDS | 1.88 | 4 of 6
GFNLNEYGIS | VIYADGRRKFYADSVK | GNTAGTFDE | -0.60 | 6 of 6
GFELNEYGIS | VIYSDGRRTFYADMVK | GKAAGTFDS | 0.91 | 6 of 6

Second part, the sequence after the result:

mean, log10 nM | detected | CDR-H1 | CDR-H2 | CDR-H3
0.42 | 6 of 6 | GFDLEDYGIS | VIYADGRRTFYADSVK | GNVAGTFDQ
-0.69 | 6 of 6 | GFNLDEYGIS | VIYADGQRTFYADSVK | GQVAGTFDV
-0.08 | 6 of 6 | GFDLNEYGIS | VIYADGKRTAYADSVK | GKVAGTFDS
-0.45 | 6 of 6 | GFDLNEYGIS | VIYADGMRKVYADSVK | GNNAGTFDI
-0.26 | 6 of 6 | GFDLNEYGIS | VIYADGVRTAYADSVK | GQNAGTFDV
1.77 | 2 of 6 | GFTLNKYGIS | VIYSDGRRTFYSDSVK | GRATGYFDS
-0.49 | 6 of 6 | GFDLNEYGIS | VIYADGKRTFYADSVK | GSNAGTFDV
-0.09 | 6 of 6 | KFELNSYGIS | VIYSDGRRTFYADSVK | GRNAGTFDS
nd | 0 of 12 | GFTLNSYSIS | VIYSDGRRTFYGDKVK | GRAAGTFDS
-1.02 | 6 of 6 | GFDLNEYGIS | VIYADGVRTAYTDSVK | GNEAGTFDV
nd | 0 of 6 | GFDLGEYGIS | VIYADGRRTAYSQSVK | GLNEGMLVI
nd | 0 of 6 | GFTLNEYGIS | VIYSDGRRTFYTDSVK | GRPAGTFDS
-0.08 | 6 of 6 | GFDLNEYGIS | VIYADGKRTAYADSVK | GEVAGTFDA
nd | 0 of 6 | GFTLNDYGIS | VIYSDGRRTQYIDSVK | GRAADTTDS
0.31 | 6 of 6 | GFDLDEYGIS | VIYADGQRTAYADSVK | GSNAGTFDM
0.01 | 6 of 6 | GFDLDEYGIS | VIYADGQRTFYADSVK | GQNAGTFDV
1.02 | 6 of 6 | GFTLNSYGIS | VIYSDGRRTFYSDSVK | GMAGGTFDT
-0.45 | 6 of 6 | GFDLNEYGIS | VIYADGSRTAYADSVK | GSNAGTFDV
nd | 0 of 6 | GETVNSYGIS | VIYSDGRRTFYGDSVK | GRQAGTFDS
-0.20 | 6 of 6 | GFDLNSYGIS | VIYSDGRRTFYGDSVK | GMTAGTFDS
nd | 0 of 6 | GFNLNSYGIS | VIYSDGRRTFYGDSVK | GRAAGTIDS
nd | 0 of 6 | GFDLNEYGIS | VIYADGTRTYYANSFK | GDYKVVNSI
2.22 | 1 of 6 | GFTLNSYGIS | VIYADGRRTFYGDSVK | GHAAGTFKM
0.47 | 6 of 6 | GFSLNSYGIS | VIYSDGRRTFYVDSVK | GREAGTFDT
0.83 | 6 of 6 | GFSLNSYGIS | VIYSDGRRSFYGDSVK | GRTAGTFDS
nd | 0 of 6 | GFCLNSYGIS | VIYSDGPRTFYGDSVK | RRAAGWFNS
0.04 | 6 of 6 | GFDLNSYGIS | VIYSDGRRTFYVDSVK | GNAAGTFDL
1.13 | 5 of 6 | GFTLNSYGIS | VIYSDGQRTFYDDNVK | GQLAGTFDS
-0.54 | 6 of 6 | GFDLNEYGIS | VIYADGKRTYYADSVK | GEVAGTFDQ
-0.45 | 6 of 6 | GFDLNEYGIS | VIYADGSRTAYADKVK | GNVAGTFDI
0.89 | 6 of 6 | GFSLNAYGIS | VIYSDGRRTFYGDQVK | GRTAGTFDS
nd | 0 of 6 | GFTLNEYGIS | VIYSDGRRTFYADSVK | GRFAGTFDN
-0.45 | 6 of 6 | GFDLEDYGIS | VIYADGRRTFYADSVK | GEIAGTFDQ
nd | 0 of 6 | GFTLNSYGIS | VIYSDGRRTFYGDSVK | CRAAGTFDS
0.76 | 6 of 6 | GFNLNSYGIS | VIYSDGRRTFYTDSVK | GRQAGTFDS
-0.20 | 6 of 6 | GFGLNEYGIS | VIYSDGRRTFYSDSVK | GQAAGTFDS
-0.95 | 6 of 6 | GFDLNEYGIS | VIYADGQRTFYADSVK | GEVAGTFDV
1.04 | 6 of 6 | GFHLNSYGIS | VIYSDGRRTFYADSVK | GRLAGTFDS
2.22 | 2 of 6 | GFTLSEYGIS | VIYSDGRRTFYGDLVK | GRAAGAFHS
0.33 | 6 of 6 | GFNLNSYGIS | VIYSDGRRTFYGDNVK | GREAGTFDS

Where one sequence has several entries in the source, the replicates are pooled. The parent sequence was in this pool as ten entries: three were never detected, three once, and four in most replicates, with averages from 0.34 to 2.37. Values of this round are not directly comparable with the first-round values of the same sequences. The authors averaged sequences with at least three values out of six and counted those with two or fewer as poor binders.